Assay results reported in US20250082702A1, “ANTICANCER COMPOSITION COMPRISING RECOMBINANT ADENOVIRUS EXPRESSING DEGRADATION FACTOR FOR EXTRACELLULAR MATRIX” (priority 2016, published 2025).

Tested on: NCIN87 gastric tumor tissues
Experiment: Tumor tissue infiltration of Alexa488-labeled trastuzumab (immunofluorescence staining)
Assay type: in vivo, mice
Protocol: It was intended to confirm the degree of infiltration and diffusion of the therapeutic material into tumor tissues by performing immunofluorescence staining. After PBS was administered alone, and PBS and trastuzumab (150 μg/mice) or RdB/IL-12/RLX (2.5×10^10 VP) and trastuzumab were co-administered to NCIN87 gastric tumor tissues, the infiltration and distribution aspects of trastuzumab labeled with Alexa488 in tumor tissues were compared.

With trastuzumab the “infiltration of trastuzumab away from the margin site of the tumor tissue” value (enlarged region, fluorescence vs distance from margin) was “reduced to the level of the negative control”, the “distribution of trastuzumab relative to the blood vessels of the tumor tissue” value (enlarged view of blood vessels) was “increased only around the blood vessels” and the “distribution of trastuzumab in the tumor tissue” value (trastuzumab 150 μg/mice, Alexa488-labeled, RdB/IL-12/RLX 2.5×10^10 VP) was “more intensively distributed around the periphery of the tumor tissue”.
